Measured values reported in patent US9006194B2, “Compositions and methods for diminishing viral infection and inflammation associated with viral infection” (Drexel University, priority 2008, dated 2015).

Test system: CD4+ and CD8+ T cells
Assay: Apoptosis assay of primary human CD4+ and CD8+ T lymphocytes exposed to Type 1 interferon (CD95/Fas-induced, Annexin V)
Details: 5 ng/mL for 72 hours, resting or anti-CD3 activated T cells, n=5 healthy donors

B1: IFN-β: Type I interferon (protein, UniProt P01574 22-187, looked up)
Interferon beta: MSYNLLGFLQRSSNFQCQKLLWQLNGRLEYCLKDRMNFDIPEEIKQLQQFQKEDAALTIYEMLQNIFAIFRQDSSSTGWNETIVENLLANVYHQINHLKTVLEEKLEKEDFTRGKLMSSLHLKRYYGRILHYLKAKEYSHCAWTIVRVEILRNFYFINRLTGYLRN
- CD95/Fas-induced apoptosis of T cells (in words): increase
